Source: PubChem BioAssay AID2101 (National Center for Advancing Translational Sciences (NCATS), 2009)
The list shows a part of the results, in another mix than the full data. Records with an inconclusive call do not appear. Some salts or complexes appear as unconnected parts, following the source record. The source made the active and inactive calls. The call rests on the fitted dose curve; in most records, active means well fitted inhibition curve with a large enough effect; inconclusive means small, poorly fitted or top-dose-only effect, or effect the other way, or another doubt; inactive means no such curve, though single readings can be large or run the other way.
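Further: 0% = full enzyme activity and -100% = no enzyme basal.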

Each compound was assayed against Lysosomal acid glucosylceramidase (Homo sapiens) (UniProt P04062) (assay: qHTS Assay for Inhibitors and Activators of N370S glucocerebrosidase as a Potential Chaperone Treatment of Gaucher Disease). Conditions: N370S GC spleen homogenate, 4MU-glucoside fluorescence; at 59.4 µM (top of the series).
From the text: NIH Chemical Genomics Center [NCGC]
NIH Molecular Libraries Probe Production Centers Network [MLPCN]
Assay Submitter (PI): Wei Zheng
Glucocerebrosidase (GC) catalyzes the hydrolysis of beta-glucocerebroside to glucose and ceramide in lysosomes. Mutations in the glucocerebrosidase gene result in Gaucher disease, an autosomal recessive lysosomal storage disorder. Many of the mutations encountered in patients with Gaucher disease are missense alterations that may cause misfolding, decreased stability and/or mistrafficking of this lysosomal protein. […] These inhibitors include iminosugar analogs and three non-iminosugar inhibitors identified from a previous HTS of 62,000 compounds with the wild type recombinant enzyme. However, the enhancement of enzyme activity by the chaperone action of an enzyme inhibitor must be balanced against the direct inhibition of the enzyme. An enzyme activator could also function as a chaperone by binding to the enzyme and helping to correct its misfolding and mistrafficking. While activators for GC have not yet been identified, they may have better therapeutic potential than inhibitors. Therefore the discovery and development of chemical activators may provide a new strategy for the chaperone therapy.
We have optimized a new assay using N370S mutant GC derived from the spleen of a Gaucher patient. […] In addition, the MLPCN compound library has expanded, which increases the chance of finding new and better probes.
NCGC Assay Protocol Summary:
This is a fluorogenic enzyme assay with 4-methylumbelliferyl-beta-D-glucopyranoside as the substrate and N370S glucocerebrosidase from human spleen homogenate as the enzyme preparation. Upon the hydrolysis of this fluorogenic substrate, the resulting product, […] which can be detected by a standard fluorescence plate reader. Data were normalized to the controls for basal activity (without enzyme) and 100% activity (with enzyme). The AC50 values were determined from concentration-response data modeled with the standard Hill equation.
Assay buffer: 50 mM citric acid (titrated with potassium phosphate to pH 5.0), 100 mM potassium chloride, 10 mM sodium chloride, 1 mM magnesium chloride, 0.01% Tween-20.
1536-well assay protocol:
(1) Add 2 ul/well of spleen homogenate (27 ug final)
(2) Add 23 nL compounds in DMSO solution. The final titration was 0.5 nM to 58 uM.
(3) Add 2 ul of substrate (1 mM final)
(4) Incubate at 37C for 40 min.
(5) Add 2 ul stop solution (1M NaOH and 1M Glycine mixture, pH 10)
(6) Detect the assay plate in a ViewLux plate reader (PerkinElmer) with Ex=365 nm and Em=440nm.
Keywords: Glucocerebrosidase, beta-glucosidase, Gaucher Disease, pharmacological chaperone, chaperone therapy, high throughput screening, glucocerebrosidase inhibitor, MLSMR, MLSCN, NIH Roadmap, qHTS and NCGC
`O=C(NCC1(N2CCCCC2)CCCCC1)c1ccc(Cl)nc1` was tested, and the activity change, negative = inhibition was inactive: -9.06%. `Cc1cc(C)cc(N(C(=O)c2ccccc2)C2CCN(C(=O)OC(C)(C)C)CC2)c1` was tested, and the activity change, negative = inhibition was inactive: -2.02%. For `O=C(NCC1(N2CCOCC2)CCCCC1)c1cc2ccccc2o1`, the activity change, negative = inhibition was inactive: -2.65%. In the case of `O=C(OC1CN2CCC1CC2)C1c2ccccc2Oc2ccccc21` (stereo not drawn), the activity change, negative = inhibition is reported as inactive: -21.8%. `N#CC1(Nc2ccccc2)CCN(Cc2ccccc2)CC1` was tested, and the activity change, negative = inhibition was inactive: -6.98%. `CCOC(=O)N1CCC(Nc2ccc(OC)cc2)CC1` was tested, and the activity change, negative = inhibition was inactive: 2.79%. `COc1ccc(C(=O)NCC2(N3CCCCC3)CCCCC2)cc1` was tested, and the activity change, negative = inhibition was inactive: -11.4%. `COc1ccc(C(=O)NCC2(N3CCCCC3)CCCCC2)c(OC)c1OC` was tested, and the activity change, negative = inhibition was inactive: -11.7%. In the case of `CC(C)(C)OC(=O)N1CCC(N(C(=O)c2ccccc2)c2ccc(F)cc2)CC1`, the activity change, negative = inhibition is reported as inactive: 1.61%. In the case of `O=C(NCC1(N2CCCCC2)CCCCC1)c1ccc(=O)[nH]c1`, the activity change, negative = inhibition is reported as inactive: -7.18%. For `O=C(NCC1(N2CCCCC2)CCCCC1)c1cccs1`, the activity change, negative = inhibition was inactive: -10.6%. `CSc1ccccc1C(=O)NCC1(N2CCCCC2)CCCCC1` was tested, and the activity change, negative = inhibition was inactive: -9.66%. With `COc1cc(C(=O)NCC2(N(C)C)CCCCC2)ccc1OC(F)F` the activity change, negative = inhibition was inactive: 0.277%. With `CCOC(=O)N1CCC(Nc2cccc(C)c2)CC1` the activity change, negative = inhibition was inactive: 3.86%. For `CCOc1ccc(C)cc1CN(CCCl)CCCl`, the activity change, negative = inhibition was inactive: -17.1%. In the case of `O=C(NCC1(N2CCCCC2)CCCCC1)c1ccc(F)cc1`, the activity change, negative = inhibition is reported as inactive: -4.94%. For `CCCCOc1ccc(C(=O)NCC2(N3CCOCC3)CCCCC2)cc1`, the activity change, negative = inhibition was inactive: -3.13%. In the case of `CCOC(=O)N1CCC(Nc2ccc(F)cc2)CC1`, the activity change, negative = inhibition is reported as inactive: -6.93%. In the case of `O=[N+]([O-])c1cc([N+](=O)[O-])c(NCC2CCS(=O)(=O)C2)c([N+](=O)[O-])c1` (stereo not drawn), the activity change, negative = inhibition is reported as inactive: -23.9%. In the case of `O=C(NCC1(N2CCCCC2)CCCCC1)c1cccc(C(F)(F)F)c1`, the activity change, negative = inhibition is reported as inactive: 2.91%. For `O=C(NCC1(N2CCOCC2)CCCCC1)c1cc(=O)[nH]c2ccccc12`, the activity change, negative = inhibition was inactive: -6.98%. `COc1cc(C(=O)NCC2(N3CCCCC3)CCCCC2)ccc1OC(F)F` was tested, and the activity change, negative = inhibition was inactive: -3.3%. `COc1ccc(NC2CCN(C(=O)OC(C)(C)C)CC2)cc1` was tested, and the activity change, negative = inhibition was inactive: -4.51%. With `CC(C)c1ccc(C(=O)NCC2(N3CCOCC3)CCCCC2)cc1` the activity change, negative = inhibition was inactive: -2.4%. In the case of `CN1CCN(CCOC(=O)C(O)(c2ccccc2)c2ccccc2)CC1`, the activity change, negative = inhibition is reported as inactive: -13.5%. For `O=C(NCC1(N2CCCCC2)CCCCC1)c1ccc(OC(F)F)cc1`, the activity change, negative = inhibition was inactive: -9.94%. In the case of `CCN1CCC(Nc2ccc(Cl)cc2)CC1`, the activity change, negative = inhibition is reported as inactive: -4.46%. With `N#CC1(Nc2ccccc2)CCN(CCc2ccccc2)CC1` the activity change, negative = inhibition was inactive: -2.42%. For `CSc1ccc(C(=O)NCC2(N3CCOCC3)CCCCC2)cc1`, the activity change, negative = inhibition was inactive: -14.5%. For `O=C(NCC1(N2CCCCC2)CCCCC1)c1cccc([N+](=O)[O-])c1`, the activity change, negative = inhibition was inactive: 4.36%. With `O=C(OC1CN2CCC1CC2)c1ccc([N+](=O)[O-])cc1` (stereo not drawn) the activity change, negative = inhibition was inactive: 3.26%. With `COc1ccc2c(c1O)-c1c(O)c(OC)cc3c1[C@H](C2)[N+](C)(C)CC3.O=[N+]([O-])c1cc([N+](=O)[O-])c([O-])c([N+](=O)[O-])c1[O-]` the activity change, negative = inhibition was inactive: -13.2%. `CCCOc1ccc(C(=O)NCC2(N(C)C)CCCCC2)cc1OC` was tested, and the activity change, negative = inhibition was inactive: 0.894%.
